The compounds below were run against IMPDH human type II (Homo sapiens, UniProt P12268) (assay: IMPDH activity inhibition assay (spectrophotometric, NADH formation at 340 nm)). Settings: 15 to 50 nM enzyme, 37° C., tight-binding fit (Henderson).
Assay type: biochemical
Description: We have measured the inhibition constants of each compound against IMPDH using an adaptation of the method first reported by […]. Moyed, and […]. Biol. Chem., 226, p. 339 (1957)]. We measured the inhibition constants of the compounds listed in Table III utilizing the following protocol: IMP dehydrogenase activity was assayed following an adaptation of the method first reported by […]. Moyed, H. S. and […]. Biol. Chem. 226, 339]. Enzyme activity was measured spectrophotometrically, by monitoring the increase in absorbance at 340 nm due to the formation of NADH (ε340 is 6220 M^-1 cm^-1). The reaction mixture contained 0.1 M Tris pH 8.0, 0.1 M KCl, 3 mM EDTA, 2 mM DTT, […] and enzyme (IMPDH human type II) at a concentration of 15 to 50 nM. This solution is incubated at 37° C. for 10 minutes. The reaction is started by adding NAD to a final concentration of 0.1 M and the initial rate is measured by following the linear increase in absorbance at 340 nm for 10 minutes. For reading in a standard spectrophotometer (path length 1 cm) the final volume in the cuvette is 1.0 ml. The assay has also been adapted to a 96 well microtiter plate format; in this case the concentrations of all the reagents remain the same and the final volume is decreased to 200 μl. For the analysis of inhibitors, the compound in question is dissolved in DMSO to a final concentration of 20 mM and added to the initial assay mixture for preincubation with the enzyme at a final volume of 2-5% (v/v). The reaction is started by the addition of NAD, and the initial rates measured as above. […] The designation “ND” is used where a given compound was not tested.

Question: With `O=C(Nc1csc([N+](=O)[O-])c1)Nc1ccc(-c2cnco2)c(Cl)c1` as the compound, how does the Ki read?
Answer: 1000 to 10000 nM

Question: Which Ki does the source give for `COc1cc(NC(=O)Nc2cccc(CNC(=O)OC(COCc3ccccc3)COCc3ccccc3)c2)ccc1-c1cnco1` here?
Answer: 0.01 to 50 nM

Question: `Cc1cc(NC(=O)Nc2ccc(-c3cnco3)c(Cl)c2)co1` was tested. Which Ki did it give?
Answer: 51 to 1000 nM

Question: How did the Ki turn out when `O=C(Nc1csc(NO)c1)Nc1ccc(-c2cnco2)c(Cl)c1` was run?
Answer: 1000 to 10000 nM

Question: `Nc1cc(NC(=O)Nc2ccc(-c3cnco3)c(Cl)c2)cs1` was tested. Which Ki did it give?
Answer: 1000 to 10000 nM

From US7329681B2, “Inhibitors of IMPDH enzyme” (Vertex Pharmaceuticals Incorporated, priority 1996, dated 2008)
